Protein sequences, listed by entry. Tags and fused reporters are not part of them.
UniProt P21397, whole entry: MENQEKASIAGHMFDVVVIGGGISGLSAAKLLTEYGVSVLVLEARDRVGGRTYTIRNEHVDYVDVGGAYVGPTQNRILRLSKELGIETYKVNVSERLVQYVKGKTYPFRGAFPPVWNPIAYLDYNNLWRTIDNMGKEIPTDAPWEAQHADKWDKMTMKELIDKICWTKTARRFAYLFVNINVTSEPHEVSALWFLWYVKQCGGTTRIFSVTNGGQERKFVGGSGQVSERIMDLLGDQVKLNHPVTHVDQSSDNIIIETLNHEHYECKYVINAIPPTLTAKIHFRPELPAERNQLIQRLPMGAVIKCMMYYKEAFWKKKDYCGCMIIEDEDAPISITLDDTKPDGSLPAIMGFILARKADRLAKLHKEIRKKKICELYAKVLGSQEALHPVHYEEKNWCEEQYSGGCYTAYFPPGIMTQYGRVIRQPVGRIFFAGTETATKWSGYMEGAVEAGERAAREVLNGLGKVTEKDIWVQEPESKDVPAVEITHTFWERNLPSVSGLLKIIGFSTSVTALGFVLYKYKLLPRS

According to ChEMBL document CHEMBL4811301, “Synthesis and biological evaluation of 3-styrylchromone derivatives as selective monoamine oxidase B inhibitors” (Bioorg Med Chem, 2021):

Target: Amine oxidase [flavin-containing] A (Homo sapiens, UniProt P21397)
Assay: Inhibition of human recombinant MAO-A […] as incubated for 20 mins measuring increase in emission signal at 310 nm multimode plate reader assay

Structure (SMILES): C#CCN(C)Cc1ccccc1 [PARGYLINE]
- IC50: 4.6 µM
